Measured values reported in ChEMBL document CHEMBL1143561, “Virtual docking approaches to protein kinase B inhibition” (J Med Chem, 2005).

Chains of the proteins cited; added tags and fusions are not shown. Lines headed by an entry give the natural chain unless they say otherwise; changes in a name come on top.
UniProt P31749: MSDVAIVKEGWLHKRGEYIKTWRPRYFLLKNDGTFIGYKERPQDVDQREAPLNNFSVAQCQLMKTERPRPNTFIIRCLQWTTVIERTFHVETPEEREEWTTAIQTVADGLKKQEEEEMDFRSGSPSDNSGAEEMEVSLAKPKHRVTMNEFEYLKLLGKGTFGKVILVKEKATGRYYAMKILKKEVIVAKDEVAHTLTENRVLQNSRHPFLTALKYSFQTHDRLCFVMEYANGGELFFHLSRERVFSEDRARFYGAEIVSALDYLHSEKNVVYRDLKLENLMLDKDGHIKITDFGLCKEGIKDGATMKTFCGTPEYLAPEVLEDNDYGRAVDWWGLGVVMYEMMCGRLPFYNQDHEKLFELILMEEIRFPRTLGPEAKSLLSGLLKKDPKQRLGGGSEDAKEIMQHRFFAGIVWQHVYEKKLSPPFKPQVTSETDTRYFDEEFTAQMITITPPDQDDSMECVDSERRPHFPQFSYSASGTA

Target: RAC-alpha serine/threonine-protein kinase (Homo sapiens, UniProt P31749)
Assay: Inhibition of protein kinase B alpha (Akt1) in fluorescent enzymatic assay

- IC50: 126 µM
Compound: CC1=C(C#N)c2nc(N)c(C#N)c(C)c2/C1=C/c1ccc(-c2ccc(C(=O)O)cc2)o1
